# AlphaSeq binding of Ab-95 light chain variants to a spike HR2 peptide

From the AlphaSeq antibody data of Engelhart et al. 2022 (doi:10.1038/s41597-022-01779-4), copy in the FLAb collection.

All variants were tested on one target, the spike HR2 peptide PDVDLGDISGINAS (SARS-CoV-2).

Each scFv is VH, a 15-residue (Gly4Ser)3 linker, VL, as in the parent Ab-95, and differs from it in the CDRs of the light chain only.
VH: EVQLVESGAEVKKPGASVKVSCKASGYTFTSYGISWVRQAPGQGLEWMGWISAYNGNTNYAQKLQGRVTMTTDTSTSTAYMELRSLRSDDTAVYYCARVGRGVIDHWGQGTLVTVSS
VL: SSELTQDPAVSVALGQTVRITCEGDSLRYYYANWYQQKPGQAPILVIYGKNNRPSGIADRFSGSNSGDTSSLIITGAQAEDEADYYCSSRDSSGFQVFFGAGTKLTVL

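Variants in AAYL52 differ from the parent at up to three CDR positions; double and triple changes were sampled at random. The scFvs were displayed on barcoded MATa yeast, the peptide on MATalpha yeast. The frequency of each diploid, read from paired DNA barcodes, reflects how well the two displayed proteins bind. The ratio of observed to expected reads was calibrated, replicate by replicate, on BCL2-family standards whose Kd was known from biolayer interferometry. There are three technical replicates.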

Substitutions are numbered in sequence along the VL above, starting at 1 (not Kabat). Affinities are written as log10 Kd with Kd in nM; a lower number is a better binder. Replicates are averaged; those with no signal do not enter the mean. "not detected" means that the variant was in the library but no mating with the target was seen in any replicate; the authors take this as a sign of poor binding, and no number exists.

mean log10 Kd (nM)	replicates with signal	changes
not detected	0/3	D25C/R90D/F98S
3.50	3/3	R90K/V97L/F98V
3.28	2/3	S26P/S55M/G94R
4.40	2/3	N33Y/K50H/S55D
3.41	3/3	S26H/S93M/F95A
2.40	3/3	S88R/D91W/G94C
1.60	3/3	Y31E/N51G/V97P
not detected	0/3	E23W/N33V/G49L
4.79	1/3	R90H/S92C/F95K
not detected	0/3	R53Y/G94K/V97I
5.03	2/3	E23K/N52F/R53D
4.03	1/3	N33L/R90F/G94M
3.28	1/3	Y29T/N33A/R53C
3.93	2/3	N33M/K50H/S89N
3.20	3/3	L27K/Y30S/S89G
3.71	3/3	E23G/L27H/V97E
3.91	1/3	G24K/S26K/F98Y
2.18	3/3	D25W/S88F/R90A
not detected	0/3	S88R/S89Y/S92P
2.00	3/3	Y30L/P54G/S55T
3.11	3/3	D25L/S92F/F95G
3.62	2/3	G24V/Y29A/R90S
4.79	2/3	N33V/G49M/Q96G
3.65	1/3	G49K/S92D
3.98	2/3	Y30L/N33R/D91S
3.62	2/3	G24M/D91H
4.46	3/3	N52M/S88Y/R90I
2.62	3/3	Y31E/R90N/F95W
2.14	3/3	E23I/Y29P/Q96P
4.03	3/3	S26Y/N33K/G49Y
3.74	1/3	R28P/A32W/Q96D
not detected	0/3	L27A/R53E/D91M
4.04	1/3	E23W/R53E/G94I
not detected	0/3	K50C/R53C/F95C
3.24	2/3	G24F/D25L/S88F
3.23	2/3	Y31T/S55P/S92W
3.55	2/3	Y30H/S88H/S93Y
2.70	3/3	P54K/R90E/V97E
1.77	3/3	Y29W/Y31N/G94D
3.11	2/3	N51G/F95I/V97H
3.95	2/3	S26H/L27T/P54N
not detected	0/3	Y29A/D91Q/S93E
3.09	2/3	P54W/S93E
4.70	2/3	L27K/N33K/Q96R
2.37	3/3	G24K/Y30D/S55V
not detected	0/3	A32I/R53I/F95E
3.47	2/3	L27Q/N52L
4.40	2/3	S26D/L27I/S88V
4.28	1/3	D25Y/N33L/S88C
1.53	3/3	Y30S/S55W/F95D
3.08	3/3	Y30Q/R53F/F98D
3.36	3/3	K50D/R53Y/S88E
1.25	3/3	Y30C/Y31E/A32T
2.18	3/3	D25S/D91C/S93M
3.16	1/3	G49I/P54T/Q96C
4.40	3/3	E23F/A32R/K50P
3.03	3/3	N52L/S89F/S92W
2.38	3/3	G24L/D25P/L27D
4.11	1/3	L27C/R28K/S92H

The first 6 variants above that were never detected:

changes	mean log10 Kd (nM)	replicates with signal
D25C/R90D/F98S	not detected	0/3
E23W/N33V/G49L	not detected	0/3
R53Y/G94K/V97I	not detected	0/3
S88R/S89Y/S92P	not detected	0/3
L27A/R53E/D91M	not detected	0/3
K50C/R53C/F95C	not detected	0/3

Parent in this assay: reference entry 2.31, copy in this library 2.25. Background: pairings of library AAYL52 with three empty control strains gave a value in 28% of cases (median 3.91, 5th percentile 2.90). Values in that range, when seen in few replicates, are hard to tell from nonspecific mating.